Assay results from patent publication US20040254344A1, “Amino acid conjugates providing for sustained systemic concentrations of gaba analogues” (priority 2001, published 2004).

Details: rat, oral prodrug 25 mg-equivalents of gabapentin per kg
Experimental: The pharmacokinetics of the prodrugs prepared in Examples 1 and 3 were examined in rats. […] Animals were fasted overnight prior to dosing and until 4 hours post-dosing. Serial blood samples were obtained over 24 hours following dosing and blood was processed for plasma by centrifugation. Plasma samples were stored at −80° C. until analyzed.
Plasma (50 μL) was precipitated by addition of […] of methanol and supernatant was injected directly onto the LC/MS/MS system. […] Following oral administration of gabapentin prodrugs, concentrations of prodrug and gabapentin in plasma were monitored over 24 hours.

**Q.** With “L-Tyrosine-(O-2-Bromobenzyloxycarbonyl)-Gabapentin [4d]” as the substance, how does the “Cmax PD (Cmax of prodrug in plasma)” value read?
**A.** The value was under 4 ng/mL.
